Laboratory results: paper PMC9654333, “AmyP53, a Therapeutic Peptide Candidate for the Treatment of Alzheimer’s and Parkinson’s Disease: Safety, Stability, Pharmacokinetics Parameters and Nose-to Brain Delivery” (International Journal of Molecular Sciences, 2022)

Tested on: bEnd.3 murine endothelial cells (bEnd.3/C6 co-cultures)
Experiment: Transport through in vitro reconstituted blood–brain barrier (two-compartment chamber)
Format: in vitro ADME, mouse
Conditions: bEnd.3/C6 model, donor basal to acceptor apical compartment
Protocol: An in vitro model of the blood–brain barrier was reconstituted with bEnd.3 murine endothelial cells obtained from the American Type Culture Collection (ATCC, Manassas, VA, USA) ref. bEnd.3 [BEND3] (ATCC CRL-2299). These cells were cultured in chambers with two compartments separated by a filter with a porosity of 0.4 µm (Corning-Transwell, Dominique Dutscher, Bernolsheim, France). The cells were seeded at a density of 50,000 cells per individual filter and cultured in a growth medium containing 10% fetal calf serum. After an initial spreading step, the bEnd.3 cells colonized the entire surface available on the filter, thus reconstituting a functional endothelium. At this stage, the cells established tight junctions preventing the passage of molecules and ions. In order to improve the differentiation of bEnd.3 cells, we also set up two coculture systems: [bEnd.3 + astrocytes (CTX cells)] and [bEnd.3 + glioma (C6 cells)]. […] The impermeability of each of these cellular barriers was assessed by transendothelial resistance measurements with a Voltmeter-Ohmmeter Millicell-ERS (Merck-Millipore, Burlington, MA, USA). The tested peptides (or bovine serum albumin) were injected in the lower compartment and their concentration in the upper compartment was analyzed as a function of time by spectrophotometry. […]

**Q.** Which “Transendothelial transport through the blood–brain barrier” value does the source give for “bovine serum albumin [BSA, reference compound]” here?
**A.** did not cross the blood–brain barrier at all
